# Experimental data from PubChem BioAssay AID678 (Vanderbilt High Throughput Screening Facility, 2007).
# The list shows a part of the results, in another mix than the full data. Active and inactive are the calls of the source.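 The calls were made as follows: active = fluorescence response below the plate's average for near-maximal glutamate wells, less 3 SD of those wells; inactive = the rest.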
# Biological target: Metabotropic glutamate receptor 4 (Homo sapiens) (UniProt Q14833)
# Experiment: human mGluR4 response to M1 antagonist hits, M1 allosteric modulator project, cell-based, antagonist mode, secondary assay 1 (AID 678);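 also: raw unnormalized fluorescence span taken in the window right after glutamate addition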
# Conditions: CHO-mGluR4 calcium flux, Fluo-4 fluorescence, glutamate EC80; at 10 µM; stronger effect = lower value
row,SMILES,fluorescence response (max-min)
1,O=C(OC1CN2CCC1CC2)C1c2ccccc2Oc2ccccc21 (configuration not stated),inactive: 257
2,CCC(CO)(C(=O)OC1CN2CCC1CC2)c1ccccc1 (configuration not stated),inactive: 232
